Target: FLAG-tagged PDE2A1 (amino acids 2-941) (Homo sapiens (Human), UniProt O00408)
Experiment: IMAP TR-FRET PDE2A phosphodiesterase enzymatic assay
Settings: not given

By UniProt entry, the sequences of proteins in these tests, tags left out. Residues count along the entry.
UniProt O00408, 2-941: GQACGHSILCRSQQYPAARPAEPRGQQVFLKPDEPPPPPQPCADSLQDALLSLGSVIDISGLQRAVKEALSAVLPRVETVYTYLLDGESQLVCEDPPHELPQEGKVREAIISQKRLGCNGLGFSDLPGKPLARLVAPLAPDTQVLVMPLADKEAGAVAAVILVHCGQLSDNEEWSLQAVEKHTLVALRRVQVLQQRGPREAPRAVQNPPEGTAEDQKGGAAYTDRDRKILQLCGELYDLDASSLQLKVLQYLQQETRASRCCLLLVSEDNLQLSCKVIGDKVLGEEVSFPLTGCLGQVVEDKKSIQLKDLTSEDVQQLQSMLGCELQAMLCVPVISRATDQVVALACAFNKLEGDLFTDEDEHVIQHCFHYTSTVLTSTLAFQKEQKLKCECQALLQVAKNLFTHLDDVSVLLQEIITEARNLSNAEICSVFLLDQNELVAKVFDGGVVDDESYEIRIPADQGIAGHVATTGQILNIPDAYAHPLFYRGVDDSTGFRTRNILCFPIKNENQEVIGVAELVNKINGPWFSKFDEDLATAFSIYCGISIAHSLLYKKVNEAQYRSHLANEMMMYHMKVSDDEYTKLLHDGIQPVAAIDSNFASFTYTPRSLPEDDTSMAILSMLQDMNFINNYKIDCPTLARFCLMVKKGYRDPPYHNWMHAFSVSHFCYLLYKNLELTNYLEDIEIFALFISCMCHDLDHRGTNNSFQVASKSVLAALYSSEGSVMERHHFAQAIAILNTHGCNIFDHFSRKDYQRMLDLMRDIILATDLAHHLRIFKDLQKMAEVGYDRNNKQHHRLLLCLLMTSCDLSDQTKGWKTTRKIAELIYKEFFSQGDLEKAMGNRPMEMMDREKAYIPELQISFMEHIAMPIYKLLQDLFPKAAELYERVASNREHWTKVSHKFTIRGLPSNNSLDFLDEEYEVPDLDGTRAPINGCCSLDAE

Row | Compound | IC50
1 | Cc1cc(C2CCCN(Cc3cnc(N(C)C)s3)C2)n2ncnc2n1 (centres unmarked) [Example 201, N,N-Dimethyl-5-[(3-{5-methyl-[1,2,4]triazolo[1,5-a]pyrimidin-7-yl}piperidin-1-yl)methyl]-1,3-thiazol-2-amine] | 100 to 1000 nM
2 | Cc1cc(C2CCCN(Cc3cnc(N4CCCC4)s3)C2)n2ncnc2n1 (centres unmarked) [Example 202, 3-{5-Methyl-[1,2,4]triazolo[1,5-a]pyrimidin-7-yl}-1-{[2-(pyrrolidin-1-yl)-1,3-thiazol-5-yl]methyl}piperidine] | 100 to 1000 nM
3 | Cc1cc(C2CCCN(Cc3cc(Br)no3)C2)n2ncnc2n1 (centres unmarked) [Example 203, 1-[(3-Bromo-1,2-oxazol-5-yl)methyl]-3-{5-methyl-[1,2,4]triazolo[1,5-a]pyrimidin-7-yl}piperidine] | 1000 to 10000 nM
4 | Cc1cc(C2CCCN(Cc3cc(F)c(F)c(Br)c3)C2)n2ncnc2n1 (centres unmarked) [Example 204, 1-[(3-Bromo-4,5-difluorophenyl)methyl]-3-{5-methyl-[1,2,4]triazolo[1,5-a]pyrimidin-7-yl}piperidine] | 1000 to 10000 nM
5 | Cc1cc(C2CCCN(Cc3nc(C)c(Br)s3)C2)n2ncnc2n1 (centres unmarked) [Example 205, 1-[(5-Bromo-4-methyl-1,3-thiazol-2-yl)methyl]-3-{5-methyl-[1,2,4]triazolo[1,5-a]pyrimidin-7-yl}piperidine] | 100 to 1000 nM
6 | Cc1cc(C2CCCN(Cc3sc(N(C)C)nc3C)C2)n2ncnc2n1 (centres unmarked) [Example 206, N,N,4-Trimethyl-5-[(3-{5-methyl-[1,2,4]triazolo[1,5-a]pyrimidin-7-yl}piperidin-1-yl)methyl]-1,3-thiazol-2-amine] | 1000 to 10000 nM
7 | Cc1cc(C2CN(C(=O)c3ccc(F)cc3)CCO2)n2ncnc2n1 (centres unmarked) [Example 212, 4-[(4-Fluorophenyl)carbonyl]-2-{5-methyl-[1,2,4]triazolo[1,5-a]pyrimidin-7-yl}morpholine] | 1000 to 10000 nM
8 | Cc1cc(C2CN(C(=O)c3ccccc3)CCO2)n2ncnc2n1 (centres unmarked) [Example 213, 4-Benzoyl-2-{5-methyl-[1,2,4]triazolo[1,5-a]pyrimidin-7-yl}morpholine] | 1000 to 10000 nM
9 | Cc1cc(C2CN(C(=O)c3ccc(F)c(Cl)c3)CCO2)n2ncnc2n1 (centres unmarked) [Example 214, 4-[(3-Chloro-4-fluorophenyl)carbonyl]-2-{5-methyl-[1,2,4]triazolo[1,5-a]pyrimidin-7-yl}morpholine] | 100 to 1000 nM
10 | Cc1cc(C2CN(C(=O)c3cccc(F)c3)CCO2)n2ncnc2n1 (centres unmarked) [Example 215, 4-[(3-Fluorophenyl)carbonyl]-2-{5-methyl-[1,2,4]triazolo[1,5-a]pyrimidin-7-yl}morpholine] | 1000 to 10000 nM
11 | Cc1cc(C2CN(C(=O)c3ccc(F)c(C(F)(F)F)c3)CCO2)n2ncnc2n1 (centres unmarked) [Example 216, 4-{[4-Fluoro-3-(trifluoromethyl)phenyl]carbonyl}-2-{5-methyl-[1,2,4]triazolo[1,5-a]pyrimidin-7-yl}morpholine] | 1000 to 10000 nM
12 | COc1ccc(C(=O)N2CCOC(c3cc(C)nc4ncnn34)C2)cc1 (centres unmarked) [Example 217, 4-[(4-Methoxyphenyl)carbonyl]-2-{5-methyl-[1,2,4]triazolo[1,5-a]pyrimidin-7-yl}morpholine] | 100 to 1000 nM
13 | Cc1cc(C2CN(C(=O)c3ccc(-c4ccccc4)cc3)CCO2)n2ncnc2n1 (centres unmarked) [Example 218, 2-{5-Methyl-[1,2,4]triazolo[1,5-a]pyrimidin-7-yl}-4-[(4-phenylphenyl)carbonyl]morpholine] | 100 to 1000 nM
14 | Cc1cc(C2CN(C(=O)c3ccc(Cl)cc3)CCO2)n2ncnc2n1 (centres unmarked) [Example 219, 4-[(4-Chlorophenyl)carbonyl]-2-{5-methyl-[1,2,4]triazolo[1,5-a]pyrimidin-7-yl}morpholine] | 100 to 1000 nM
15 | Cc1cc(C2CN(C(=O)c3cccc(Cl)c3)CCO2)n2ncnc2n1 (centres unmarked) [Example 220, 4-[(3-Chlorophenyl)carbonyl]-2-{5-methyl-[1,2,4]triazolo[1,5-a]pyrimidin-7-yl}morpholine] | 100 to 1000 nM
16 | Cc1cc(C2CN(C(=O)c3cccc(OC(F)(F)F)c3)CCO2)n2ncnc2n1 (centres unmarked) [Example 221, 2-{5-Methyl-[1,2,4]triazolo[1,5-a]pyrimidin-7-yl}-4-{[3-(trifluoromethoxy)phenyl]carbonyl}morpholine] | 1000 to 10000 nM
17 | Cc1cc(C2CN(C(=O)c3cc(Cl)cc(Cl)c3)CCO2)n2ncnc2n1 (centres unmarked) [Example 222, 4-[(3,5-Dichlorophenyl)carbonyl]-2-{5-methyl-[1,2,4]triazolo[1,5-a]pyrimidin-7-yl}morpholine] | 100 to 1000 nM
18 | Cc1cc(C2CN(C(=O)c3ccc(C#N)cc3)CCO2)n2ncnc2n1 (centres unmarked) [Example 223, 4-[(2-{5-Methyl-[1,2,4]triazolo[1,5-a]pyrimidin-7-yl}morpholin-4-yl)carbonyl]benzonitrile] | > 10000 nM
19 | Cc1cc(C2CN(C(=O)c3ccc(F)c(F)c3)CCO2)n2ncnc2n1 (centres unmarked) [Example 224, 4-[(3,4-Difluorophenyl)carbonyl]-2-{5-methyl-[1,2,4]triazolo[1,5-a]pyrimidin-7-yl}morpholine] | > 10000 nM
20 | Cc1cc(C2CN(C(=O)c3cccc(Br)c3)CCO2)n2ncnc2n1 (centres unmarked) [Example 226, 4-[(3-Bromophenyl)carbonyl]-2-{5-methyl-[1,2,4]triazolo[1,5-a]pyrimidin-7-yl}morpholine] | 100 to 1000 nM
21 | Cc1cc(C2CN(C(=O)c3cccc(C#N)c3)CCO2)n2ncnc2n1 (centres unmarked) [Example 227, 3-[(2-{5-Methyl-[1,2,4]triazolo[1,5-a]pyrimidin-7-yl}morpholin-4-yl)carbonyl]benzonitrile] | 1000 to 10000 nM
22 | Cc1cc(C2CN(C(=O)c3cccc(C(F)(F)F)c3)CCO2)n2ncnc2n1 (centres unmarked) [Example 228, 2-{5-Methyl-[1,2,4]triazolo[1,5-a]pyrimidin-7-yl}-4-{[3-(trifluoromethyl)phenyl]carbonyl}morpholine] | 100 to 1000 nM
23 | Cc1cc(C2CN(C(=O)c3ccc(C(F)(F)F)cc3)CCO2)n2ncnc2n1 (centres unmarked) [Example 229, 2-{5-Methyl-[1,2,4]triazolo[1,5-a]pyrimidin-7-yl}-4-{[4-(trifluoromethyl)phenyl]carbonyl}morpholine] | 1000 to 10000 nM
24 | CCOc1cccc(C(=O)N2CCOC(c3cc(C)nc4ncnn34)C2)c1 (centres unmarked) [Example 230, 4-[(3-Ethoxyphenyl)carbonyl]-2-{5-methyl-[1,2,4]triazolo[1,5-a]pyrimidin-7-yl}morpholine] | 100 to 1000 nM
25 | Cc1cc(C2CN(C(=O)c3ccc(F)c(Br)c3)CCO2)n2ncnc2n1 (centres unmarked) [Example 231, 4-[(3-Bromo-4-fluorophenyl)carbonyl]-2-{5-methyl-[1,2,4]triazolo[1,5-a]pyrimidin-7-yl}morpholine] | 100 to 1000 nM
26 | Cc1cc(C2CN(C(=O)c3cccc(C#N)c3)CC(F)(F)C2)n2ncnc2n1 (centres unmarked) [Example 236, 3-[(3,3-Difluoro-5-{5-methyl-[1,2,4]triazolo[1,5-a]pyrimidin-7-yl}piperidin-1-yl)carbonyl]benzonitrile] | 100 to 1000 nM
27 | Cc1cc(C2CN(C(=O)c3ccc(F)c(C(F)(F)F)c3)CC(F)(F)C2)n2ncnc2n1 (centres unmarked) [Example 237, 3,3-Difluoro-1-{[4-fluoro-3-(trifluoromethyl)phenyl]carbonyl}-5-{5-methyl-[1,2,4]triazolo[1,5-a]pyrimidin-7-yl}piperidine] | 100 to 1000 nM
28 | Cc1cc(C2CN(C(=O)c3cccc(C(F)(F)F)c3)CC(F)(F)C2)n2ncnc2n1 (centres unmarked) [Example 238, 3,3-Difluoro-5-{5-methyl-[1,2,4]triazolo[1,5-a]pyrimidin-7-yl}-1-{[3-(trifluoromethyl)phenyl]carbonyl}piperidine] | 100 to 1000 nM
29 | Cc1cc(C2CN(C(=O)c3ccc(C(F)(F)F)cc3)CC(F)(F)C2)n2ncnc2n1 (centres unmarked) [Example 240, 3,3-Difluoro-5-{5-methyl-[1,2,4]triazolo[1,5-a]pyrimidin-7-yl}-1-{[4-(trifluoromethyl)phenyl]carbonyl}piperidine] | 100 to 1000 nM
30 | Cc1cc([C@H]2CN(C(=O)c3ccc4ccccc4c3)CCO2)n2ncnc2n1 [Example 241, (2R)-2-{5-methyl-[1,2,4]triazolo[1,5-a]pyrimidin-7-yl}-4-[(naphthalen-2-yl)carbonyl]morpholine] | 100 to 1000 nM

Same assay, conditions: IMAP TR-FRET, 200 nM FAM-cAMP substrate, 11-point half-log dose-response

Row | Compound | PDE2 (pIC50)
31 | Cc1cc(C2CCCN(Cc3cnc(Br)s3)C2)n2ncnc2n1 (centres unmarked) [Example 200, 1-[(2-Bromo-1,3-thiazol-5-yl)methyl]-3-{5-methyl-[1,2,4]triazolo[1,5-a]pyrimidin-7-yl}piperidine] | >7
32 | Cc1cc(C2CCCN(C(=O)c3ccc4c(c3)CCO4)C2)n2ncnc2n1 (centres unmarked) [Example 207, 1-[(2,3-Dihydro-1-benzofuran-5-yl)carbonyl]-3-{5-methyl-[1,2,4]triazolo[1,5-a]pyrimidin-7-yl}piperidine] | >7
33 | Cc1cc(C2CCCN(C(=O)c3ccc4c(c3)CCCO4)C2)n2ncnc2n1 (centres unmarked) [Example 208, 1-[(3,4-Dihydro-2H-1-benzopyran-6-yl)carbonyl]-3-{5-methyl-[1,2,4]triazolo[1,5-a]pyrimidin-7-yl}piperidine] | >7
34 | Cc1cc(C2CN(C(=O)c3cccc(I)c3)CCO2)n2ncnc2n1 (centres unmarked) [Example 209, 4-[(3-Iodophenyl)carbonyl]-2-{5-methyl-[1,2,4]triazolo[1,5-a]pyrimidin-7-yl}morpholine] | >7
35 | Cc1cc(C2CN(C(=O)c3ccc4ccccc4c3)CCO2)n2ncnc2n1 (centres unmarked) [Example 210, 2-{5-Methyl-[1,2,4]triazolo[1,5-a]pyrimidin-7-yl}-4-[(naphthalen-2-yl)carbonyl]morpholine] | >7
36 | Cc1cc(C2CN(C(=O)c3cccc(I)c3)CC(F)(F)C2)n2ncnc2n1 (centres unmarked) [Example 211, 3,3-Difluoro-1-[(3-iodophenyl)carbonyl]-5-{5-methyl-[1,2,4]triazolo[1,5-a]pyrimidin-7-yl}piperidine] | >7
37 | Cc1cc(C2CN(C(=O)c3cccc(Cl)c3)CC(F)(F)C2)n2ncnc2n1 (centres unmarked) [Example 232, 1-[(3-Chlorophenyl)carbonyl]-3,3-difluoro-5-{5-methyl-[1,2,4]triazolo[1,5-a]pyrimidin-7-yl}piperidine] | >7
38 | Cc1cc(C2CN(C(=O)c3cc(Cl)cc(Cl)c3)CC(F)(F)C2)n2ncnc2n1 (centres unmarked) [Example 233, 1-[(3,5-Dichlorophenyl)carbonyl]-3,3-difluoro-5-{5-methyl-[1,2,4]triazolo[1,5-a]pyrimidin-7-yl}piperidine] | >7
